Source: patent US9546164B2 (GENENTECH, INC., priority 2013, dated 2017)

By UniProt entry, the sequences of proteins in these tests, tags left out. Chains listed by the source or under a name are the forms on record and can include a tag or linker.
UniProt Q15858, other isoform, or with tags, fused parts or gaps: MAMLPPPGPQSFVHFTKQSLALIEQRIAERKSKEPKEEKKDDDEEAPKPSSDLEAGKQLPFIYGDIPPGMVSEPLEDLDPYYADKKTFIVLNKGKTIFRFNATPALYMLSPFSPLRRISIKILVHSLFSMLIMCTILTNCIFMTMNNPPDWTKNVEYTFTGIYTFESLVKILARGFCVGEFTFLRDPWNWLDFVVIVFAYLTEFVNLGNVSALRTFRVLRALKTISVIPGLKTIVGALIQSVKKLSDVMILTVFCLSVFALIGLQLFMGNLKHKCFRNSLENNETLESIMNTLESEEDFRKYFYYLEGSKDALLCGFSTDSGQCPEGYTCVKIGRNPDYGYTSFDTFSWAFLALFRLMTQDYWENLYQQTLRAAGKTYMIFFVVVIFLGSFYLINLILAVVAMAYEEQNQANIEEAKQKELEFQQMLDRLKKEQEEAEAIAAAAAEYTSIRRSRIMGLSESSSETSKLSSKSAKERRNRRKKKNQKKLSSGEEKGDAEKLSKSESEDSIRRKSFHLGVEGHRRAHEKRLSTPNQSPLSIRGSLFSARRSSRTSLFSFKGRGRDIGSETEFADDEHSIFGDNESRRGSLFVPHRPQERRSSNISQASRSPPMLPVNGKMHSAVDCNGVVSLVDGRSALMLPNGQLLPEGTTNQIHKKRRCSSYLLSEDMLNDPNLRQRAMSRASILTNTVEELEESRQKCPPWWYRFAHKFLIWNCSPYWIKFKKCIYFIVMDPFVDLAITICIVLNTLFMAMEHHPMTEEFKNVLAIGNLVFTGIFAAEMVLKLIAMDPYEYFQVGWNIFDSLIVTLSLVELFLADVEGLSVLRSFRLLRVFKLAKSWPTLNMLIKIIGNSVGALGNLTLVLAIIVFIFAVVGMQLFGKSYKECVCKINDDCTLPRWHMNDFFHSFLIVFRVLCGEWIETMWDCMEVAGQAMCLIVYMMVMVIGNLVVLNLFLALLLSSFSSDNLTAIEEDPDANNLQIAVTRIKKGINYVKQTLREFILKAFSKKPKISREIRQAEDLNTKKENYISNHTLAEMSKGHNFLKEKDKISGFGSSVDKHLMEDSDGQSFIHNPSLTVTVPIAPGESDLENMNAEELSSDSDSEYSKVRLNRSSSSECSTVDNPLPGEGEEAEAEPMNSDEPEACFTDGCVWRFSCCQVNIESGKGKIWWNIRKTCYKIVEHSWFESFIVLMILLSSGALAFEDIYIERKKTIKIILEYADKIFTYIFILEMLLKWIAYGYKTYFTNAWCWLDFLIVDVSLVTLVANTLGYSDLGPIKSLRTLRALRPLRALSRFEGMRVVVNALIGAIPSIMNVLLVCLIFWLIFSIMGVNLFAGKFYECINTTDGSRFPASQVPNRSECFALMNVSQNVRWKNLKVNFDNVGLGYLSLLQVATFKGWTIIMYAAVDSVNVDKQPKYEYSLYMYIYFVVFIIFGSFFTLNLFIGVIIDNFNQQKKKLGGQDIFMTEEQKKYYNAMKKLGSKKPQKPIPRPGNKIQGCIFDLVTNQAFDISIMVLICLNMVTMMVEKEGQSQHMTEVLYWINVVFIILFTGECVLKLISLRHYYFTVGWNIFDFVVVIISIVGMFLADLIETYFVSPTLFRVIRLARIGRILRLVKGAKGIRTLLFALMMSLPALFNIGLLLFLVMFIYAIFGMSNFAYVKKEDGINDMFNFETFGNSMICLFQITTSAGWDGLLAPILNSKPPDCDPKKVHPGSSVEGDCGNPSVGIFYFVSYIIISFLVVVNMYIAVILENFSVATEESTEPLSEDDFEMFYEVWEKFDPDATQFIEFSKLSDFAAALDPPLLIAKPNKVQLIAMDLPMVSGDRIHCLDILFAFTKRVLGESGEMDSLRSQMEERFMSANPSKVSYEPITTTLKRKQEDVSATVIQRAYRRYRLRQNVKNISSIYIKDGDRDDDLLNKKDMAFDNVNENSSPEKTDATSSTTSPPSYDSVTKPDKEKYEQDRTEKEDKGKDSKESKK

Target: hNav1.7 (Homo sapiens (Human), UniProt Q15858)
Assay: Tritiated sulfonamide competitive binding to membranes from cells expressing hNav1.7 and the β1 subunit;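 also: Filter-bound radioactivity counted by liquid scintillation, nonspecific binding defined with excess unlabelled ligand, IC50 fitted to percent inhibition of specific binding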

SMILES: O=C(NS(=O)(=O)C1CC1)c1cc(C2CC2)c(O[C@@H]2CCCN(c3ccccc3)C2)cc1F [Example 40, (R)-5-cyclopropyl-N-(cyclopropylsulfonyl)-2-fluoro-4-((1-phenylpiperidin-3-yl)oxy)benzamide]
- IC50: 8.4 nM
